Reference: ChEMBL document CHEMBL4680083, “Identification of Tricyclic Agonists of Sphingosine-1-phosphate Receptor 1 (S1P) Employing Ligand-Based Drug Design” (J Med Chem, 2016)

Experiments:
Assay type in all cases: cell-based
[1] = Selectivity index, ratio of EC50 for agonist activity at rat S1P3 to EC50 for agonist activity at rat S1P1 expressed in CHO cell membranes
[2] = Selectivity index, ratio of EC50 for agonist activity at human S1P5 to EC50 for agonist activity at human S1P1 expressed in CHO cell membranes
[3] = Selectivity index, ratio of EC50 for agonist activity at human S1P4 to EC50 for agonist activity at human S1P1 expressed in CHO cell membranes

Molecule `O=C(O)C1CN(Cc2ccc3c(c2)CCc2c-3noc2-c2onc(-c3ccccc3)c2C(F)(F)F)C1` has a Selectivity Index [1] of 6100, a Selectivity Index [2] of 2.4 and a Selectivity Index [3] of 2.4.
